Laboratory results published in ChEMBL document CHEMBL1133086, “Design, synthesis, and X-ray crystal structure of a potent dual inhibitor of thymidylate synthase and dihydrofolate reductase as an antitumor agent” (J Med Chem, 2000).

The chains behind the UniProt entries cited, without tags or fusion partners.
UniProt P00381, whole entry: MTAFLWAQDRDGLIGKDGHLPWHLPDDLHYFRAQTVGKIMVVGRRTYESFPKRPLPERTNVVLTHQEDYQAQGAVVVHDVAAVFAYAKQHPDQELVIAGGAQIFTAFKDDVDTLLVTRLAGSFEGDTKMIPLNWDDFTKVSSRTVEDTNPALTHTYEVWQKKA
UniProt C3SWJ7, whole entry: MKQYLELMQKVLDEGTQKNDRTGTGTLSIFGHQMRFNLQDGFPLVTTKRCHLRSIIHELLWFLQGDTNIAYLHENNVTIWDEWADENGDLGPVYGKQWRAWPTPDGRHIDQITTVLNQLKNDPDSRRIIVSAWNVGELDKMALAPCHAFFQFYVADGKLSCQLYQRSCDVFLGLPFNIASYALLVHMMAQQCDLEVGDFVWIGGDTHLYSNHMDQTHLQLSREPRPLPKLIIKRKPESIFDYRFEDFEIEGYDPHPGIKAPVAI

What was measured:
[1] = molecular target: Dihydrofolate reductase (Lactobacillus casei, UniProt P00381); assay: Inhibitory concentration against isolated Lactobacillus casei Dihydrofolate reductase; set-up: species or system Lacticaseibacillus casei
[2] = molecular target: Thymidylate synthase (Escherichia coli, UniProt C3SWJ7); assay: Inhibitory concentration against isolated Escherichia coli Thymidylate synthase
[3] = molecular target: T1, Bifunctional dihydrofolate reductase-thymidylate synthase (Toxoplasma gondii, UniProt Q07422)
T1 sequence (Q07422 whole entry): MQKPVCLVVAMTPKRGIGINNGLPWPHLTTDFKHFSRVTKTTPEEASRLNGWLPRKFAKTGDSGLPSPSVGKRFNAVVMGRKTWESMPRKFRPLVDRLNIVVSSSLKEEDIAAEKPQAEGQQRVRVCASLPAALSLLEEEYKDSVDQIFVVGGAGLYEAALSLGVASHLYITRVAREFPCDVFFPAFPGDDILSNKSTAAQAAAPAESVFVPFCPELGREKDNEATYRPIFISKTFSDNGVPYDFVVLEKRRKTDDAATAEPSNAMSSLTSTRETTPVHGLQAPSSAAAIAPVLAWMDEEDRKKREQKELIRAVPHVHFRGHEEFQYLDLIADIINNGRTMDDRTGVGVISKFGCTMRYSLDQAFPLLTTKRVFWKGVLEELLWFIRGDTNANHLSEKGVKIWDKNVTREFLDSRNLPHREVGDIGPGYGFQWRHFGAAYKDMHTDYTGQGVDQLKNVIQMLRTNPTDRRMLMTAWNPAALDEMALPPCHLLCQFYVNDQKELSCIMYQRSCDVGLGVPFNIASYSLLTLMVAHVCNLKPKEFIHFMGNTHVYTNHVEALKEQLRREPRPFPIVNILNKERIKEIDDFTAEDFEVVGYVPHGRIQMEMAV

With `Nc1nc2[nH]cc(CCc3ccc(C(=O)N[C@@H](CCC(=O)O)C(=O)O)cc3)c2c(=O)[nH]1` [PEMETREXED] the IC50 [1] was 2.3 µM, the IC50 [2] was 110 µM and the IC50 [3] was 1.4 µM.

`Cc1nc2ccc(CN(C)c3ccc(C(=O)N[C@@H](CCC(=O)O)C(=O)O)s3)cc2c(=O)[nH]1` [RALTITREXED] was tested, and the IC50 [2] was 10 µM.
